Legend:
[1] = target: T1, mouse big-ET-1 (SEQ ID NO:437) (Mus musculus, UniProt P22387); experiment: Surface plasmon resonance (Biacore) binding, mAb capture format, 37° C.
T1 sequence (P22387 53-91 limits assumed): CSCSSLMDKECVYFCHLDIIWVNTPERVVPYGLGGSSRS
Method: (§1) Measurements were conducted on a T200 Biacore instrument (Biacore Life Sciences division of GE Healthcare, Piscataway, N.J.). […] Different concentrations of small-ET-1 (SEQ ID NO:435), human big-ET-1 (SEQ ID NO:434) or mouse big-ET-1 (SEQ ID NO:437) were injected over the anti-big-ET-1 captured surfaces at a flow rate of 100 μl/min. Peptide binding was monitored for 3 min while dissociation of mAb-bound peptide was monitored for 4 min in HBST running buffer (0.01 M HEPES pH 7.4, 0.15 M NaCl, 3 mM EDTA, 0.005% v/v Surfactant P20). Kinetic association (ka) and dissociation (kd) rate constants were determined by processing and fitting the data to a 1:1 binding model using Scrubber 2.0 curve fitting software.

[2] = target: T2, human big-ET-1 (SEQ ID NO:434) (Homo sapiens, UniProt P05305); experiment: as above
T2 sequence (P05305 53-90 limits assumed): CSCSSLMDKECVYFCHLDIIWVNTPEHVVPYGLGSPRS
Method: as §1

[3] = analyte human big-ET-1, mAb capture

B1: H4H6335P: anti-big-ET-1 antibody, human IgG4 Fc; HCVR/LCVR SEQ ID NO: 274/282 (antibody, V domains shown)
VH: EVQLVESGGGLVKPGGSLRLSCAASGFTFSNDWMSWVRQAPGKGLEWVGRIKRKTDGGTTDYAAPVKGRFTISRDDSKNTLYLQMNSLKTEDTAVYYCTTGGYERGGQGTLVTVSS
VL: [omitted - about 100 residues]LTFGGGTKVEIK
modifications: human IgG4 Fc
binding to mouse big-ET-1 (in words) [1]: did not show any binding | Kd ([1]; analyte mouse big-ET-1, mAb capture, KD=kd/ka): > 1 µM | binding to human big-ET-1 (in words) [2]: high affinity binding | ka [2, 3]: 818000 M/s | kd [2, 3]: 0.00437 s⁻¹

— patent US9751932B2, “Anti-big-endothelin-1 (big-ET-1) antibodies and uses thereof” (Regeneron Pharmaceuticals, Inc., priority 2012, dated 2017)
